Test results: patent US20230330112A1, “COMPOSITION AND TREATMENT FOR CANCER WITH MUTATIONS” (BRIDGE BIOTHERAPEUTICS, INC., priority 2022, published 2023)

System: Ba/F3 cells carrying EGFR 19Del-derived Compound A-resistant clones
Assay: Cell growth-inhibition assay, Compound A-resistant clones from Ba/F3 EGFR 19Del (ENU mutagenesis)
Type: cell-based, murine
Details: cetuximab alone; as well as in parental cells
Procedure: Ba/F3 cells expressing EGFR mutations were exposed to 100 m/mL ENU for 24 hours. The cells were washed and cultured in RPMI with 10% FBS for 24 hours. Subsequently, 1×10^4 cells were plated in 96-well plates in the presence of Compound A. The medium containing Compound A was changed twice weekly for 3 weeks. When the cell growth was observed macroscopically, the cells were transferred to 48-well plates and incubated until they reached confluence in the absence of drug. Using the RNeasy Plus Mini Kit (QIAGEN), total RNA was isolated from resistant clones. Then, RNA was converted to cDNA using ReverTra Ace (TOYOBO) and total EGFR cDNAs were sequenced using a Genetic Analyzer 3130 or 3500XL (APPLIED BIOSYSTEMS).
A total of 2×10^3 cells were seeded in each well of 96-well plates. After 24 hours, EGFR TKIs were added at the indicated concentrations. After a 72-hour incubation, 10 μL of the Cell Counting Kit-8 solution (DOJINDO LABORATORIES) was added to each well, and the plates were incubated for an additional 3 hours. Absorbance at 450 nm was measured using a multiplate reader (Tecan). The percentage of viable cells was evaluated and compared with those of DMSO-treated controls or PBS-treated controls.

Q: How did the “overcoming Compound A-resistant clones (cell growth)” value turn out when cetuximab was run?
A: able to overcome
